Measurements published in patent publication US11819556B2, “Stabilized compositions of radionuclides and uses thereof” (RayzeBio, Inc., priority 2021, dated 2023).
Read-outs that look alike come from different tables or passages of the source.

Details: 0.03 mCi/ml, excipient 1 mg/ml in sodium acetate-acetic acid buffer pH 5.80, 25° C.

| Compound | Percentage of ^225Ac present in [^225Ac]Ac-DOTA-TATE (0 hour after mixing) [%] | Percentage of ^225Ac present in [^225Ac]Ac-DOTA-TATE (24 hours after mixing) [%] | Percentage of ^225Ac present in [^225Ac]Ac-DOTA-TATE (48 hours after mixing) [%] |
| --- | --- | --- | --- |
| O=C1O[C@H]([C@@H](O)CO)C([O-])=C1O.[Na+] [Sodium Ascorbate, pH 5.8, Sodium Ascorbate] | 99.42 | 95.42 | – |
| Catechin hydrate | 99.42 | 95.41 | 95.64 |
| Dextran (60-90) [Dextran (60-90), Clinical grade] | 99.42 | 94.91 | 86.80 |
